Yeast mating assay 1: variants of the scFv Ab-14

From the AlphaSeq antibody data of Engelhart et al. 2022 (doi:10.1038/s41597-022-01779-4), copy in the FLAb collection.

Target peptide (SARS-CoV-2 spike, HR2 region): PDVDLGDISGINAS

The variants keep the light chain, the linker and the frameworks of Ab-14 (scFv order VH, a 15-residue (Gly4Ser)3 linker, VL).
VH: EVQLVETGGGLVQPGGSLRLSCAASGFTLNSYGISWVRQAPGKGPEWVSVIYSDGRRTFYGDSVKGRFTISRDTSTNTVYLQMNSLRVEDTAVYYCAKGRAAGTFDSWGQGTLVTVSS
VL: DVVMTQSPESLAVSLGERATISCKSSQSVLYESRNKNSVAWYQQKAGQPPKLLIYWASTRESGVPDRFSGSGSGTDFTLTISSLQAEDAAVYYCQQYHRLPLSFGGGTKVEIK

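Library AAYL49 holds single substitutions and randomly drawn double and triple substitutions in the CDRs. In AlphaSeq, yeast of one mating type display the scFv and yeast of the other type display the target. Pairs that bind mate more often; barcode pairs of the diploids are counted by sequencing. Each replicate has its own calibration line, from reference interactions of the BCL2 family. There are three technical replicates.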

Each variant is given by its three heavy chain CDRs, as the data file delimits them; those of the parent are GFTLNSYGIS, VIYSDGRRTFYGDSVK, GRAAGTFDS.
This list gathers variants with a substitution at G103 (VH, numbered from residue 1).
Kd is apparent (estimated from mating counts) and averaged on the log scale over replicates with a signal. Smaller is tighter.
"nd" means that the variant was in the library but no mating with the target was seen in any replicate; the authors take this as a sign of poor binding, and no number exists.

* GFTLNSYGIS / VIYSDGRRTFFGDSVK / GRAAWTFRS -> 1.8 µM (3 of 3 replicates; controls 6 of 9)
* GFTLNFYGIS / VIYSDGRRTFYGDSVK / GRAARTGDS -> nd (0 of 3 replicates; controls 0 of 9)
* GFTLNSYGIS / VIISDGRRTFWGDSVK / GRAAKTFDS -> nd (0 of 3 replicates; controls 1 of 9)
* KFTLNSHGIS / VIYSDGRRTFYGDSVK / GRAAHTFDS -> nd (0 of 3 replicates; controls 2 of 9)
* GFTLNSYGIS / VIYSDGRRTFYGDSVK / WRTAMTFDS -> 320 nM (3 of 3 replicates; controls 0 of 9)
* GFTLKSYGIS / VIYSDGRRTFYRDSVK / GRAASTFDS -> 5.5 µM (1 of 3 replicates; controls 0 of 9)
* GFTLNSYGIS / KIYSDGRRTFYGDSVK / GRAAQTFDF -> nd (0 of 3 replicates; controls 0 of 9)
* GFTLNSYGIS / VIYYDGRRTFYGDSVK / GRAATTFFS -> nd (0 of 3 replicates; controls 0 of 9)
* GFTLNSYGIS / VIYSDGRRTFYGDSVG / GMAAQTFDS -> nd (0 of 3 replicates; controls 0 of 9)
* GFTLNSNGIS / VIYSDGRRTFFGDSVK / GRAAKTFDS -> 160 µM (2 of 3 replicates; controls 3 of 9)
* GFTLNSYGIL / VIYSDGRRTFYGDSVK / GPAARTFDS -> 1.9 µM (1 of 3 replicates; controls 2 of 9)
* GFTLNSYGIS / VIYSDGRRTFYGDAVK / GRSAVTFDS -> 5.6 µM (1 of 3 replicates; controls 2 of 9)
* GFTLNSYGIS / VAYSDGCRTFYGDSVK / GRAACTFDS -> nd (0 of 3 replicates; controls 1 of 9)
* GFTLNSYGIV / VIYSDGRRTFYGDSVK / GRAALTMDS -> nd (0 of 3 replicates; controls 0 of 9)
* GFTLNSYGIS / VIYSDGRRTFYGDSVK / GDHAVTFDS -> 310 µM (2 of 3 replicates; controls 3 of 9)
* GFTLNSYGIS / VIYSDGRRSFYGDSVK / GRADQTFDS -> 44 µM (1 of 3 replicates; controls 1 of 9)
* GFVLNSYGIS / DIYSDGRRTFYGDSVK / GRAADTFDS -> nd (0 of 3 replicates; controls 0 of 9)
* GFTLNSHGIS / VIYSDGDRTFYGDSVK / GRAADTFDS -> 32 µM (3 of 3 replicates; controls 2 of 9)
* GFTLNSYGIS / VIYSDGRRTFYDDSVK / GRAALTFDS -> 6.3 nM (3 of 3 replicates; controls 0 of 9)
* GFTLNSYGIR / VIYSDGRRTEYGDSVK / GRAAYTFDS -> 5.3 µM (1 of 3 replicates; controls 1 of 9)
* GFTLNSYQIS / VIYSDGRLTFYGDSVK / GRAACTFDS -> nd (0 of 3 replicates; controls 1 of 9)
* GFTLNSYGIS / VIYSDGRRTFYGDSPK / GRAACCFDS -> 6.4 µM (1 of 3 replicates; controls 1 of 9)
* GFTHNSYGIE / VIYSDGRRTFYGDSVK / GRAAFTFDS -> 61 µM (1 of 3 replicates; controls 4 of 9)
* GFTLNSYGIS / VIYSDGRRTFKGDSGK / GRAAPTFDS -> nd (0 of 3 replicates; controls 1 of 9)
* GFTLNSYGIS / RFYSDGRRTFYGDSVK / GRAARTFDS -> nd (0 of 3 replicates; controls 0 of 9)
* GFTLNSYPIS / VIYSDGRRTFYGDSVK / GRAAQTFWS -> 1.8 µM (2 of 3 replicates; controls 0 of 9)
* GFTLNFYGIS / VIYSDGRRTFTGDSVK / GRAAFTFDS -> nd (0 of 3 replicates; controls 1 of 9)
* GFTTNSYGIS / VIYSDGRRTFYGDSVK / GRAATTFDS -> 5.2 µM (3 of 3 replicates; controls 3 of 9)
* GFTENSYGIS / VIYSDGRRTFYGDSVK / GRFAYTFDS -> nd (0 of 3 replicates; controls 0 of 9)
* GFTLNSYGIT / VKYSDGRRTFYGDSVK / GRAASTFDS -> 13 µM (2 of 3 replicates; controls 1 of 9)
* GFTLNSYWIS / VIYSDGRRTFYGDSVK / ARAAETFDS -> nd (0 of 3 replicates; controls 1 of 9)
* GFTLNSYGIS / VIYSDGRRTFYLDSVC / GRAAPTFDS -> nd (0 of 3 replicates; controls 0 of 9)
* GFTLNSYGIS / VIYSDGRRTFYGDSVK / GRRAHTFHS -> 26 µM (1 of 3 replicates; controls 2 of 9)
* GFTLNSYGIS / DIYSDGRRTFYGDSVK / GRAAAAFDS -> 11 µM (1 of 3 replicates; controls 1 of 9)
* VFTLNSYGIS / VIYSDGRRTFLGDSVK / GRAAKTFDS -> nd (0 of 3 replicates; controls 0 of 9)
* GFTLNSYGIS / VIYSDGRRTFYGDSVK / IRSAATFDS -> nd (0 of 3 replicates; controls 0 of 9)
* GFELNSYEIS / VIYSDGRRTFYGDSVK / GRAAITFDS -> 580 µM (1 of 3 replicates; controls 2 of 9)
* GFTLNSYGIS / VYYSDIRRTFYGDSVK / GRAAHTFDS -> nd (0 of 3 replicates; controls 0 of 9)
* GFTLNSYGIS / VIYSDGRRTFYGDSVK / GRAAHTFDS -> nd (0 of 3 replicates; controls 0 of 9)
* GFTLNSYGSS / VIYSDGRRTFYGDSVK / GRAAITFSS -> 210 nM (2 of 3 replicates; controls 0 of 9)
* GFGLNSYGIS / VIYSDGTRTFYGDSVK / GRAACTFDS -> 9.9 µM (1 of 3 replicates; controls 1 of 9)
* GFTLNSYGIS / VIYSDGRRYFYGDSVL / GRAAPTFDS -> 42 µM (2 of 3 replicates; controls 3 of 9)
* GFLLNSYGIS / VIYSDGRRTFYGDSVK / GRAAKHFDS -> 34 nM (3 of 3 replicates; controls 2 of 9)
* GFTLNSYGIS / VIYSDGRRTFYGDSLK / TRAAWTFDS -> nd (0 of 3 replicates; controls 0 of 9)
* GFTLNSYCIS / VIYSDGRRTFYTDSVK / GRAARTFDS -> nd (0 of 3 replicates; controls 0 of 9)
* RFTLNSYGIS / VIYSDGRRTFYGDSVT / GRAAQTFDS -> nd (0 of 3 replicates; controls 0 of 9)

3 of these entries, quoted again:

{"CDR-H1": "GFTLNSYGSS", "CDR-H2": "VIYSDGRRTFYGDSVK", "CDR-H3": "GRAAITFSS", "Kd (apparent)": "210 nM", "replicates with signal": "2 of 3", "empty controls": "0 of 9"}
{"CDR-H1": "RFTLNSYGIS", "CDR-H2": "VIYSDGRRTFYGDSVT", "CDR-H3": "GRAAQTFDS", "Kd (apparent)": "nd", "replicates with signal": "0 of 3", "empty controls": "0 of 9"}
{"CDR-H1": "GFTLNSYGIR", "CDR-H2": "VIYSDGRRTEYGDSVK", "CDR-H3": "GRAAYTFDS", "Kd (apparent)": "5.3 µM", "replicates with signal": "1 of 3", "empty controls": "1 of 9"}

In this assay the parent's reference entry averaged 4.4 nM; its copy inside this library read 13 µM (one replicate of three).
Background: pairings of library AAYL49 with three empty control strains gave a value in 15% of cases (median 11 µM, 5th percentile 680 nM). Values in that range, when seen in few replicates, are hard to tell from nonspecific mating. For each scFv, signals with the empty controls are counted beside the result.